Target: recombinant human FAP (Homo sapiens (Human), UniProt Q12884)
Assay: In vitro enzyme IC50 assay, FAP
Assay type: biochemical
Conditions: read-out: FAP Inhibition (IC50); Example 3, compounds of Formula XI; pH not stated

Sequences of proteins named here, by UniProt entry; tags and fusion partners are left off.
UniProt Q12884, whole entry: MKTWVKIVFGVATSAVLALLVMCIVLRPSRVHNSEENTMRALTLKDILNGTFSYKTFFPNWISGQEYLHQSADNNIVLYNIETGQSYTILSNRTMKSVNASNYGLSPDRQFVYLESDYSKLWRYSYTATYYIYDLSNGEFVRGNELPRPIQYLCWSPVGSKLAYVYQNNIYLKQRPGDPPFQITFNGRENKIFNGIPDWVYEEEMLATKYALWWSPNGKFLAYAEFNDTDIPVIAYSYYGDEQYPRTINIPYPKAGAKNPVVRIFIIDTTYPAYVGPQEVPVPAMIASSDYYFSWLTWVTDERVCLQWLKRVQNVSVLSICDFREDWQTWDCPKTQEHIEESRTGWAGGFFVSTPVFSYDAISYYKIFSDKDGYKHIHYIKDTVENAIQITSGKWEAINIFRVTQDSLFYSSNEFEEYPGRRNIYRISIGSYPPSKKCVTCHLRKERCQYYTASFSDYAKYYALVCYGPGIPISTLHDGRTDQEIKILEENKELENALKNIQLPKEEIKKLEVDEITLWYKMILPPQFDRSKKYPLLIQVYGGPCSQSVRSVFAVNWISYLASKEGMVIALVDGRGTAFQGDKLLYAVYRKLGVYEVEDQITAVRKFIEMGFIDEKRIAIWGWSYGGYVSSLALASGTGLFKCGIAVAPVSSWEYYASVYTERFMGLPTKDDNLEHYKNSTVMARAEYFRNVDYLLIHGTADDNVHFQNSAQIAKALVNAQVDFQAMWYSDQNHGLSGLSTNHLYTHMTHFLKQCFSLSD

Compound: CC1=CC(C)=[N+]2C1=C(CCC(=O)NNc1ccc(C(=O)N[C@H](C)C(=O)N3CCC[C@H]3B(O)O)cn1)c1c(C)cc(C)n1[B-]2(F)F
- IC50: 0.4 nM

Compound: CC1=CC(C)=[N+]2C1=Cc1ccc(CCC(=O)NNc3ccc(C(=O)N[C@H](C)C(=O)N4CCC[C@H]4B(O)O)cn3)n1[B-]2(F)F
- IC50: 13.9 nM

Reference: patent US20240366807A1, “RADIOFLUORINATED AGENTS FOR PET IMAGING SELECTIVELY TARGETING FIBROBLAST ACTIVATION PROTEIN” (Trustees of tufts college, priority 2021, published 2024)
